From patent US20100285451A1

Protein sequences, listed by entry. Tags and fused reporters are not part of them. Chains listed by the source or under a name are the forms on record and can include a tag or linker.
UniProt P29754, other isoform, or with tags, fused parts or gaps H31R H31R: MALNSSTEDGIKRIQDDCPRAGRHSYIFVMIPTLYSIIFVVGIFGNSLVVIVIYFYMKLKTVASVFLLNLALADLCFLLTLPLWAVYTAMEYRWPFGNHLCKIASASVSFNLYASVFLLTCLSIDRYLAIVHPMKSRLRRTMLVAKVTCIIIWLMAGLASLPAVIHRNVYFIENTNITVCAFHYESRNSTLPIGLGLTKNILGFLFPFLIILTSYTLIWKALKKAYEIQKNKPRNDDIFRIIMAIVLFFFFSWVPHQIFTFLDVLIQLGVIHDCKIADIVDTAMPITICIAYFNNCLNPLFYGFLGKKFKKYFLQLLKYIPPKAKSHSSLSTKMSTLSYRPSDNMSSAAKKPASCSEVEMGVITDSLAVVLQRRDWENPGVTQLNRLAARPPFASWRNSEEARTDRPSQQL

Molecular target: Angiotensin receptor 1a-eYFP-α fusion (mouse Angiotensin II receptor 1a, C-terminal eYFP-α(H31R)) (mouse; E. coli) (UniProt P29754)
Assay: cell-based or functional assay

EC50, arrestin-binding activation assay (β-galactosidase complementation of β-arrestin-ω + GPCR-eYFP-α): 2.4 nM | EC50, internalization assay (β-galactosidase complementation of FYVE-ω + GPCR-eYFP-α): 3.3 nM
Substance: angiotensin II (from UniProt P01019 25-32) (peptide)
